## scFv variants of Ab-14 (light chain) against a SARS-CoV-2 spike peptide

Values reported by Li et al. 2023, doi:10.1038/s41467-023-39022-2 (FLAb copy).

All variants were tested on one target, the spike HR2 peptide PDVDLGDISGINAS (SARS-CoV-2).

Ab-14 is the parent antibody, in scFv form: VH, then a (GGGGS)3 linker, then VL. The heavy chain is unchanged in all variants.
VH: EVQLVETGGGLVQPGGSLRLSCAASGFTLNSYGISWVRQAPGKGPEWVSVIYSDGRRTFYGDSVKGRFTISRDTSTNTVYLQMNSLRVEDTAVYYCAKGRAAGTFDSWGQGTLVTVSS
VL: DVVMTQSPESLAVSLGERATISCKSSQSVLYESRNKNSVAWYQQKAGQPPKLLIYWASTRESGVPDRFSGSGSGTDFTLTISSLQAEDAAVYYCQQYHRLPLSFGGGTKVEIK

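The parent was found by panning a naive human phage display library on the peptide. The variants were designed computationally from a first round of random CDR variants and then made and measured. Group labels follow the data file (Ctrl: baseline library sampled from a position-specific scoring matrix, with some repeated check sequences; GP: Gaussian process model; HC: hill climbing; Gen: genetic algorithm; Gibbs: Gibbs sampling; a sequence that several methods proposed may carry one label only). The assay is AlphaSeq: two haploid yeast populations carry antibody and antigen on their surface. The frequency of each diploid, read from paired DNA barcodes, reflects how well the two displayed proteins bind. Read counts were normalised to the haploid input and turned into Kd by a linear fit to BCL2-family pairs of known affinity, for each replicate. The assay was run in six technical replicates.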

Variants are written as CDR1, CDR2 and CDR3 of the light chain (limits as in the source). Parent: KSSQSVLYESRNKNSVA, WASTRES, QQYHRLPLS.
This list holds designs with at most six substitutions.
The Kd shown is the geometric mean over detected replicates; a lower Kd is a better binder.
An entry "nd" has no value in the source: the pair was not observed among the diploids in any replicate. This suggests poor binding but is not conclusive.
Background: pairings of all light chain designs with three empty control strains gave a value in 4% of cases (median 430 nM, 5th percentile 38 nM). Values in that range, when seen in few replicates, are hard to tell from nonspecific mating.
The authors' rule: three or more of the six replicates give a measured affinity, fewer mean a poor binder.
The range of this assay differs from that of the first round, and the authors advise against merging the two.
Of ten entries with the parent sequence, four were seen in most replicates (averages 2.2 nM to 240 nM), three in one and three in none, so single entries are noisy.

With KSSQSSLTESRNKNSVA, WASLRES, QQYHRLPLS [Ctrl] the result was nd (0 of 6 replicates).
With KVSQSVPYESRNKNSVA, DASTRCS, QQYHRLPLS [GP_Gen] the result was 870 pM (6 of 6 replicates).
With KQSQSVLYESVNKNSVA, DASTREM, QQYHRLPLS [GP_HC] the result was 620 pM (6 of 6 replicates).
With KSSGSVMMLSRNKNSVA, EATTRES, QQYHRLPLS [GP_Gibbs] the result was 7.6 nM (6 of 6 replicates).
With KVSQSELYESRNKNSVA, NASQRMS, QQYHRLPLS [GP_Gen] the result was 1.1 nM (6 of 6 replicates).
With KSSQSTLYESLNKNSVA, GASIRLS, QQYHRLPLS [Ctrl] the result was 7.6 nM (6 of 6 replicates).
With KSSPSVYYESHNKNSVA, NASTRMS, QQYHRLPLS [GP_HC] the result was 5.0 nM (6 of 6 replicates).
With QSSQLVLYESRNKNSVA, MASTRER, QQYHRLPLS [Ctrl] the result was 130 nM (2 of 6 replicates).
With KSSQSVLYESCAKNSVA, WASTRES, QQYHRLPLS [Ctrl] the result was 6.6 nM (6 of 6 replicates).
With HVSPSTLYESRNKNSVA, NASTRES, QQYHRLPLS [GP_HC] the result was 530 pM (6 of 6 replicates).
With KISQSELYESRNKNSVA, NASQRLS, QQYHRLPLS [GP_Gen] the result was 9.8 nM (6 of 6 replicates).
With KLSQSVLYESRNGNSVA, NASTRES, QQYHRLPLS [GP_Gen] the result was 630 pM (6 of 6 replicates).
With KLSQSFLYESRNWNSVA, NASKRES, QQYHRLPLS [GP_Gibbs] the result was 780 pM (6 of 6 replicates).
With KSSQSVLYIGRNKNSVA, WASTRPS, QQYHRLPLS [Ctrl] the result was nd (0 of 6 replicates).
With KPSQSVLYESRNKNSVA, YASTRES, QQYHRLPLS [Ctrl] the result was 470 pM (6 of 6 replicates).
With KVSQSVLYESNNKFSVA, WASTRES, QQYHRLPLS [Ctrl] the result was 23 nM (5 of 6 replicates).
With HQSQSVLYESRNKNSVA, NGSTREV, QQYHRLPLS [GP_HC] the result was 1.1 nM (6 of 6 replicates).
With KMSQSVLYESRDKNSVA, NASTRES, QWYHRLPLS [GP_HC] the result was 160 nM (6 of 6 replicates).
With KSSISVLGESRNKNSVA, WASTRES, QQYHRLPLS [Ctrl] the result was 84 nM (5 of 6 replicates).
With HLSQSVLYESRNKNSVA, NASTRSS, QQYHRLPLS [GP_Gen] the result was nd (0 of 6 replicates).
With KVQQSQLYESRNKNSVA, NASTRCS, QQYHRLPLS [GP_Gen] the result was 920 pM (6 of 6 replicates).
With KIDQSVCYESTNKNSVA, WASTRES, AQYHRLPLS [Ctrl] the result was 57 nM (6 of 6 replicates).
With KSSQSVLYESRNKNSVA, WASTGES, QQYHRLPLS [Ctrl] the result was nd (0 of 6 replicates).
With KIEQSELYESRNKNSVA, NASTRES, QQYHRLPLS [GP_Gen] the result was 1.5 nM (6 of 6 replicates).
With KSPQSVLYESRDKYNVA, QASTRSS, QQYHRLPLS [Ctrl] the result was 6.3 nM (6 of 6 replicates).
With KSSQSVLYESRNKNSVA, AASTRES, QQYHRLFLS [Ctrl] the result was 4.8 nM (6 of 6 replicates).
With KLSQSQLYESRMKNSVA, NASQRLS, QQYHRLPLS [GP_Gen] the result was 25 nM (6 of 6 replicates).
With KLSQSQLYESRNKNAVA, NASTRES, QQYHRLPLS [GP_Gen] the result was 390 pM (6 of 6 replicates).
With KSLQSVLYESRNKNSVA, WASTRES, QQYHRLPIS [Ctrl] the result was 12 nM (1 of 6 replicates).
With KYVQSVLYESRNKNSVA, EASTRES, QQYHRLPLS [Ctrl] the result was 1.6 nM (6 of 6 replicates).
With KLVQSVLYESRNKNSVA, EASTRES, QQYHRLPLS [GP_Gen] the result was 1.3 nM (6 of 6 replicates).
With KSSQSVLYESRNKNSVA, WASTREP, QAYHRLPLS [Ctrl] the result was 21 nM (4 of 6 replicates).
With KLPQSELYESRNKNSVA, NASYRES, QQYHRLPLS [GP_Gen] the result was 610 pM (6 of 6 replicates).
With KSSQSVLYEQRNKNSVA, DASTRES, QQYHRLPLS [GP_HC] the result was 1.2 nM (6 of 6 replicates).
With KLSQSVLYESRNQNSVA, NASTRMS, QQYHRLPLS [GP_Gen] the result was 2.1 nM (6 of 6 replicates).
With KSSQTLLYNSRNKNSVA, WASTRES, QQYHRLPLS [Ctrl] the result was 150 nM (6 of 6 replicates).
With KVSMSFLYESRNKNSVA, GASTRES, QQYHRLPLS [GP_HC] the result was 980 pM (6 of 6 replicates).
With KLSQSWLYESRNKNSVA, GGNTRES, QQYHRLPLS [GP_HC] the result was 340 pM (6 of 6 replicates).
With KQSQSTLQESRNKNSVA, NCSTRES, QQYHRLPLS [Ctrl] the result was 1.8 nM (6 of 6 replicates).
With KLSQSELYESRNKNSVA, EASQRES, QQYHRLPLS [GP_Gen] the result was 900 pM (6 of 6 replicates).
With SVSQSLLYESRNKNSVA, DSSMRES, QQYHRLPLS [Ctrl] the result was 410 pM (6 of 6 replicates).
With KLSQSWLYESRNKNSVA, NASTREQ, QDYHRLPLS [GP_Gen] the result was 2.2 nM (6 of 6 replicates).
With KSSQSVMYESRNKNSVA, WASTRES, QQYHDLPYS [Ctrl] the result was nd (0 of 6 replicates).

6 of these entries, quoted again:

Variant KSSPSVYYESHNKNSVA, NASTRMS, QQYHRLPLS [GP_HC] gave 5.0 nM (6 of 6 replicates).
Variant KLSQSWLYESRNKNSVA, NASTREQ, QDYHRLPLS [GP_Gen] gave 2.2 nM (6 of 6 replicates).
Variant KIDQSVCYESTNKNSVA, WASTRES, AQYHRLPLS [Ctrl] gave 57 nM (6 of 6 replicates).
Variant KLSQSQLYESRMKNSVA, NASQRLS, QQYHRLPLS [GP_Gen] gave 25 nM (6 of 6 replicates).
Variant KSSGSVMMLSRNKNSVA, EATTRES, QQYHRLPLS [GP_Gibbs] gave 7.6 nM (6 of 6 replicates).
Variant KQSQSVLYESVNKNSVA, DASTREM, QQYHRLPLS [GP_HC] gave 620 pM (6 of 6 replicates).